Measured values taken from article PMC12305496, “Bilosomal Encapsulation of Binuclear Phosphino Ru(II)–Cu(II) Compounds Enhances Their Selectivity and Activity toward Lung and Prostate Cancers” (Journal of Medicinal Chemistry, 2025).

What follows are substances tested on zebrafish larvae (assay: In vivo toxicity in zebrafish larvae). Conditions: larvae treated at 3 dpf, 48 h of treatment, viability at 5 dpf.
“[Ru(η^6-p-cymene)Cl2Pcfx-Cu(phen)](NO3) [RuPCpCu]” gave an LC50 of 33.3 µM.
In the case of “[Ru(η^6-p-cymene)Cl2Plfx-Cu(phen)](NO3) [RuPLmCu]”, the LC50 is reported as 34 µM.
Substance “[Ru(η^6-p-cymene)Cl2Pnfx-Cu(phen)](NO3) [RuPNrCu]” has an LC50 of 50.4 µM.
In the case of “[Ru(η^6-p-cymene)Cl2Psfx-Cu(phen)] [RuPSfCu]”, the LC50 is reported as 31.9 µM.
